Assays:
lysosomal mannosidase = target: T1, lysosomal mannosidase (Homo sapiens, UniProt O00754); assay: Selectivity for inhibition of α-mannosidase II vs. lysosomal mannosidase; type: biochemical; conditions: for ratio M/L (smaller is better): ratio of activities of α-Mannosidase II/lysosomal mannosidase
T1 sequence (O00754 50-1011): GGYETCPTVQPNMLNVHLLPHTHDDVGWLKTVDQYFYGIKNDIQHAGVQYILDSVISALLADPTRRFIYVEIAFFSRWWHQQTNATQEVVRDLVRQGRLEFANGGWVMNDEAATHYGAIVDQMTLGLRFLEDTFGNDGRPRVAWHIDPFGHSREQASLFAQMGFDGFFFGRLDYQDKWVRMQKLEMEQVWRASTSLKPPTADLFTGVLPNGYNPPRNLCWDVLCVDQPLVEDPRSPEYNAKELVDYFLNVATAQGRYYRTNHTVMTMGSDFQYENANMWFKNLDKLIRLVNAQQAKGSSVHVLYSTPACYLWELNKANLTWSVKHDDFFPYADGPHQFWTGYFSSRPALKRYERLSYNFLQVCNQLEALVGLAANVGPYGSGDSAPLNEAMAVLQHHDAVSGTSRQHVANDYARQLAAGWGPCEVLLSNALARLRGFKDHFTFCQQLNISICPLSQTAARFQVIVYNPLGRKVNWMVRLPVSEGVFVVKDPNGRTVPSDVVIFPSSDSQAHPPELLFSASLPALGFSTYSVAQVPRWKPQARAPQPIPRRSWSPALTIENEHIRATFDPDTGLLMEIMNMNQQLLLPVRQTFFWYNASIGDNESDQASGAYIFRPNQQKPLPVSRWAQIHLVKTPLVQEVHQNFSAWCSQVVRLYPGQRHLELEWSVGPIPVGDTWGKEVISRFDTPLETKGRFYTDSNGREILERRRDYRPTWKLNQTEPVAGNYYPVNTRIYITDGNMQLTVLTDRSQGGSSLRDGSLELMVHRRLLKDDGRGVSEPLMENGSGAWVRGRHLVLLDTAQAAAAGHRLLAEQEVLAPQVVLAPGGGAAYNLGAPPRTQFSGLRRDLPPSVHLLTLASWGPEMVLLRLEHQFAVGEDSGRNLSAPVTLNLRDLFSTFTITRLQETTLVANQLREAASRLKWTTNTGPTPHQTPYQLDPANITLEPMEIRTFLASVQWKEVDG

[1] = target: T2, α-mannosidase from jack bean (Canavalia ensiformis, UniProt C0HJB3); assay: Screen for inhibition of α-mannosidase from jack bean; type: biochemical
T2 sequence (C0HJB3 1-981): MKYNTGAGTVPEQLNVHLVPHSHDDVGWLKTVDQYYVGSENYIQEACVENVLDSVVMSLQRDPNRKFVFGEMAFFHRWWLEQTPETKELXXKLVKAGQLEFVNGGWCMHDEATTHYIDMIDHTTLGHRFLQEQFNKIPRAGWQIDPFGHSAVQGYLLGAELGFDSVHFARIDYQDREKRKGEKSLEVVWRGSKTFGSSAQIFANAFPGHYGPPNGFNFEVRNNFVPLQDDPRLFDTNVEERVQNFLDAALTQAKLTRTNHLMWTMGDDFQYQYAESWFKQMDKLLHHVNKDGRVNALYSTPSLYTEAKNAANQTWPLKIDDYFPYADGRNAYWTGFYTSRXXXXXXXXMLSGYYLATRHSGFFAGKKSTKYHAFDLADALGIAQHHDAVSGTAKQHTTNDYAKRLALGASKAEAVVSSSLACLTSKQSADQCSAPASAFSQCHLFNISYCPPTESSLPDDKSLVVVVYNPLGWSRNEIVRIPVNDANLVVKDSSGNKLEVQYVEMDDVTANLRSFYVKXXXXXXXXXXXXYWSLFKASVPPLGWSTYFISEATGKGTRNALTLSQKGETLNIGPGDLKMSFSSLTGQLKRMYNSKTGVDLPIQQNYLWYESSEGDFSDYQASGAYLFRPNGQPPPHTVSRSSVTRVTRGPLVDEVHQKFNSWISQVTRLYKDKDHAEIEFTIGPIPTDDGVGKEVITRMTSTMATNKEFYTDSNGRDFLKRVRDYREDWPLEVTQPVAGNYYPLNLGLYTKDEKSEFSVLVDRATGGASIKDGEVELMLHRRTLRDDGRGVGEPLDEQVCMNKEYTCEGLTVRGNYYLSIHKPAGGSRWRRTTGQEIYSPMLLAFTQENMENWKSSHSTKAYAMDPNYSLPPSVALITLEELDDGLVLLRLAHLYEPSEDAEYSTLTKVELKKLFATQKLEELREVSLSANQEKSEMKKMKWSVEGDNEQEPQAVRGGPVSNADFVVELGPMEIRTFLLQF
Source text: All of the C(6) and C(7) alkylated swainsonine analogs were screened for inhibition activity against α-mannosidase from jack bean to ascertain their basic ability to inhibit mannosidase enzymes. Alkylation of the swainsonine backbone provides compounds with varying degrees of α-mannosidase inhibitory activity.

## O[C@H]1[C@H]2[C@H](O)CCCN2C[C@H]1O [Compound 1, swainsonine]
Lysosomal mannosidase
  selectivity for inhibition of α-mannosidase II over lysosomal mannosidase (in words): non-selective
  ratio M/L (smaller is better): 0.8
[1]
  IC50: 0.1 µM

## O[C@@H]1[C@H](CCOCc2ccccc2)CCN2C[C@@H](O)[C@@H](O)[C@@H]12 [Compound 53, (1S,2R,7S,8R,8aR)-7-[2-(Benzyloxy)ethyl]-1,2,8-trihydroxyindolizidine]
Lysosomal mannosidase
  selectivity for inhibition of α-mannosidase II over lysosomal mannosidase (in words): increased selectivity
  ratio M/L (smaller is better): 0.24

From US6630484B1, “6-and 7-substituted analogs of swainsonine their preparation and therapeutic use” (priority 1996, dated 2003)
